## Ab-14 light chain CDR variants: yeast mating affinities

Antigen: PDVDLGDISGINAS, a 14-residue peptide of the SARS-CoV-2 spike HR2 region.

Parent: Ab-14, a human scFv built as VH, the linker GGGGSGGGGSGGGGS, VL. Only the CDRs of the light chain vary.
VH: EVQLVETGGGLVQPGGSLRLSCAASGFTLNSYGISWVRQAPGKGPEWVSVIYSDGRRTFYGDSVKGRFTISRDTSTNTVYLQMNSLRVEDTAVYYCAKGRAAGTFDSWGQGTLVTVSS
VL: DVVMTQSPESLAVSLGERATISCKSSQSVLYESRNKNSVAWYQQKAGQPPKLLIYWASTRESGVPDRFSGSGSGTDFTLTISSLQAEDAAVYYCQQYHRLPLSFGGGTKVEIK

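The starting antibody came from a phage panning campaign against this peptide. These sequences belong to a second round, designed from the earlier measurements on random variants of the parent. Their group label is 14L_En_Gibbs (En: ensemble of fine-tuned language models; Gibbs: Gibbs sampling). In AlphaSeq, yeast of one mating type display the scFv and yeast of the other type display the target. The frequency of each diploid, read from paired DNA barcodes, reflects how well the two displayed proteins bind. Read counts were normalised to the haploid input and turned into Kd by a linear fit to BCL2-family pairs of known affinity, for each replicate. Each pool was mated in six replicate cultures.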

The parent's light chain CDRs are KSSQSVLYESRNKNSVA, WASTRES, QQYHRLPLS; each variant's own CDRs replace them letter for letter.
Scale: log10 of Kd in nM, estimated from mating counts; low values are strong binders.
A pair that was not seen in that replicate is written "nd"; this usually means weak binding, but a binder can also be missed.
Empty control strains, which show no peptide, gave a signal in 4% of pairings with all light chain designs; the median was 2.64 and 95% of these signals were weaker than 1.59. No background was subtracted. Also given: how often the same scFv was detected with the empty control strains.
The range of this assay differs from that of the first round, and the authors advise against merging the two.
The authors' rule: three or more of the six replicates give a measured affinity, fewer mean a poor binder.

For HMKDELGLGPKTQSSVA | HGSMREP | QDYYRLPLG, the assay gave 0.28, -0.08, -0.30, 0.24, -0.06, 0.23 (controls 2 of 18).
For MLTMFANENQGWSNNIA | DTNNLNT | QQYSRLPFM, the assay gave 0.81, 1.07, 0.76, 1.14, 0.91, 0.88 (controls 0 of 18).
For HLLYAGNTGSLYDNNVA | EGETVLD | QQYFRLPIT, the assay gave 1.40, 2.08, 1.64, 2.53, 1.77, 1.92 (controls 1 of 18).
For TLKMDKLPGQVNAYNIA | NAELVEN | QQYFHLPLY, the assay gave nd, 1.43, nd, nd, nd, nd (controls 0 of 18).
For NLKENNVDNQTFYSNIA | HADQREK | QQYYRLPLQ, the assay gave 1.46, 1.41, 1.47, 1.62, 1.73, 1.51 (controls 0 of 18).
For KIQHQHVGNWKTANNIA | QGDQRCS | QSYDRLPLS, the assay gave 0.94, 0.85, 0.73, 0.48, 0.40, 0.78 (controls 0 of 18).
For IMTGIIEWGSNNKNNIA | ENKERFQ | QQYWQLPLS, the assay gave 1.09, 1.12, 1.62, 1.43, 0.99, 0.98 (controls 1 of 18).
For QIQSESEHPYKDKNSMA | DAECKAA | QQYFRLPLM, the assay gave 0.28, 0.15, 0.30, 0.11, 0.45, 0.41 (controls 1 of 18).
For RIQMGDLEGRTAWNNIA | DMEESYR | QQYVRLPLY, the assay gave 0.88, 0.27, 0.75, 0.41, 0.87, 0.77 (controls 0 of 18).
For VLGGQWGLGTTQNSSIA | NDSETML | QQYWRLPLM, the assay gave nd, 4.02, nd, 1.43, nd, 2.03 (controls 0 of 18).
For HIDILNRGEYLKQDPIA | NADHREQ | QQYFHLPLA, the assay gave 0.92, 0.60, 0.84, 0.66, 1.23, 0.76 (controls 1 of 18).
For KLTKYQYNWTSHYQAVA | ESNMRAT | QSYYRLPFS, the assay gave 2.30, 2.34, 1.92, 1.94, 1.84, 1.85 (controls 1 of 18).
For DVHALMNHSEDLMQNIA | GESCRDA | QQYERLPLS, the assay gave 1.13, 0.96, 0.62, 0.87, 0.86, 1.02 (controls 3 of 18).
For SLYENYQWGGQHTNAVA | DANQMMR | QHYNRLPLA, the assay gave nd, -0.04, 1.00, -0.43, 0.01, 0.79 (controls 0 of 18).
For SMSNLGMVPSVWKNSIA | DSEHVEE | QQYSRLPLT, the assay gave 0.74, 0.36, 0.27, 0.32, 0.34, 0.41 (controls 1 of 18).
For RVTNEFFKEMERKNSVA | HTDQRCM | QQYFRLPLI, the assay gave 0.93, 0.89, 1.11, 0.90, 0.60, 0.74 (controls 2 of 18).
For KLMLSLGESKQSERNVA | NMRVSVA | QQYDHLPLT, the assay gave nd, nd, nd, nd, nd, nd (controls 1 of 18).
For FLAYALDQDGLIKNNIA | QDNLLEN | QQYERLPLA, the assay gave nd, 1.57, 2.11, nd, nd, nd (controls 0 of 18).
For KIERSTKGDAYFQYSIA | QGDIREK | QQYAQLPLT, the assay gave 1.15, 1.50, 1.29, 0.81, 1.27, 2.06 (controls 0 of 18).
For VFSGQWDGVTTENSAVA | NVDERML | QQYNRLPLM, the assay gave 0.19, 0.03, -0.06, 0.16, -0.02, 0.11 (controls 3 of 18).
For HLSANMWMESSQWDAVA | QGDIAMN | QQYSRLPLS, the assay gave 0.86, 1.48, 0.69, 1.39, 0.53, 0.70 (controls 0 of 18).
For SLTVSDNYGSQLENNIA | QGVCKCE | QQYIRLPLI, the assay gave nd, 2.82, 1.53, nd, 1.11, 0.83 (controls 0 of 18).
For KLMNSLEAFKQWEDNVA | ETEHKVA | QQYYHLPLT, the assay gave 0.77, 0.82, 1.16, 1.01, 1.18, 1.18 (controls 3 of 18).
For HIDQYTSYENGENRAIA | DVSIKDY | QQYARLPLL, the assay gave 0.88, 2.34, 0.10, -0.22, -0.18, 0.49 (controls 0 of 18).
For KVKGMMHQMGTQHQNIA | DMAIKCD | QQYQRLPLH, the assay gave 1.12, 0.34, 0.75, 0.52, 0.39, 0.61 (controls 1 of 18).
For QLELVQNGDTISENSVA | HAEVSGR | QQYSQLPLI, the assay gave nd, nd, nd, 2.84, nd, nd (controls 0 of 18).
For NLDKADYESRQMINNIA | DMSTLMA | QQYASLPLD, the assay gave nd, nd, nd, 1.87, 2.62, nd (controls 0 of 18).
For TGNVSLAQGVHEMNNVA | DGDQKLD | QQYYRLPLA, the assay gave 0.89, 0.95, 0.34, 0.67, 0.64, 0.76 (controls 0 of 18).
For HLSSNMWMESSMWDAVA | QGDIAMN | QDYSRLPLS, the assay gave nd, 2.74, 2.18, 4.43, nd, nd (controls 1 of 18).
For NVGIEDPGQWYMWDSIA | GSSLRAE | QQYWRLPLM, the assay gave 1.65, 1.32, 1.30, 0.73, 0.88, 0.85 (controls 3 of 18).
For KLDQKNRWNGMANYNVA | DSNHRVD | QQYHRLPLI, the assay gave 0.88, 0.94, 1.05, 0.56, 0.63, 0.96 (controls 1 of 18).
For HVHMEMAEEKNIRYNIA | DASMRYA | QQYVRLPLG, the assay gave 0.29, 0.34, 0.42, 0.34, 0.03, 0.52 (controls 0 of 18).
For SLIPFENQIMKDLNNIA | NTQVRAS | QQYMRLPFM, the assay gave 0.16, 0.11, 0.18, 0.03, 0.03, 0.33 (controls 2 of 18).
For NITQQGDNMGDQRANVA | NGETLFH | QQYARLPLL, the assay gave 0.52, 0.37, 0.22, 0.33, 0.25, 0.46 (controls 2 of 18).
For RISAHVYDETNTQENVA | QEHIRAN | QQYSRLPLS, the assay gave 0.27, 0.17, 0.18, 0.32, 0.26, 0.48 (controls 0 of 18).

The 3 strongest on average among those seen in every replicate, once more:

With HMKDELGLGPKTQSSVA | HGSMREP | QDYYRLPLG the result was 0.28, -0.08, -0.30, 0.24, -0.06, 0.23 (controls 2 of 18).
With VFSGQWDGVTTENSAVA | NVDERML | QQYNRLPLM the result was 0.19, 0.03, -0.06, 0.16, -0.02, 0.11 (controls 3 of 18).
With SLIPFENQIMKDLNNIA | NTQVRAS | QQYMRLPFM the result was 0.16, 0.11, 0.18, 0.03, 0.03, 0.33 (controls 2 of 18).

The measurements come from Li et al. 2023 (doi:10.1038/s41467-023-39022-2) through the FLAb antibody collection.